In US9546153B2, “Bicyclic heterocycle substituted pyridyl compounds useful as kinase modulators” (BRISTOL-MYERS SQUIBB COMPANY, priority 2012, dated 2017) one finds IC50 data, which are given here for 22 compounds.

Amino acid sequences for entries named in this document (tags omitted).
UniProt Q9NWZ3, whole entry, species assumed: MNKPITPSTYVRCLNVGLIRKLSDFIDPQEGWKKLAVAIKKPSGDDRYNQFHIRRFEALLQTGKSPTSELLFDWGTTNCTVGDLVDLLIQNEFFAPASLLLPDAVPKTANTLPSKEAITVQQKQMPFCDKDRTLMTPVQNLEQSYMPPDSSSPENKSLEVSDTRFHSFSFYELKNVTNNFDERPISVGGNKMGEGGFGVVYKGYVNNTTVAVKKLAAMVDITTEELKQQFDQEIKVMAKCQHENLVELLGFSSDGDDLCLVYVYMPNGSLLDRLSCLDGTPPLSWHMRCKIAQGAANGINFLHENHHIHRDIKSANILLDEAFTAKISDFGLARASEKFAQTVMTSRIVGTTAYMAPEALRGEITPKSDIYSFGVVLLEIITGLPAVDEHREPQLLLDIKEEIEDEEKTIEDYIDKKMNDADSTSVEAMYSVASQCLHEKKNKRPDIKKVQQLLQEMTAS

This assay has as its target IRAK4 (Homo sapiens (Human), UniProt Q9NWZ3). Briefly: IRAK4 Inhibition Assay. The assay is classed as biochemical. To be noted: ATP 500 μM; IRAK4 0.6 nM; 60 min at room temperature. The procedure:
The assays were performed in U-bottom 384-well plates. […] The reaction was initiated by the combination of IRAK4 with substrates and test compounds. The reaction was incubated at room temperature for 60 min. and terminated by adding 45 μL of 35 mM EDTA to each sample. The reaction mixture was analyzed on the Caliper LABCHIP® 3000 (Caliper, Hopkinton, Mass.) by electrophoretic separation of the fluorescent substrate and phosphorylated product.

For orientation: IC50 means the concentration that gives 50% inhibition.

Consider `CC(O)([C@H](F)CNC(=O)c1cnc(Nc2ccc3ncsc3c2)cc1NC1CCCC1F)C(F)(F)F` (stereo in doubt) [Example 339], for which the IC50 is 11.7 nM. Then `CC(O)([C@H](F)CNC(=O)c1cnc(Nc2ccc3ncsc3c2)cc1NC1CCCC1F)C(F)(F)F` (stereo in doubt) [Example 340], with 9.6 nM; and `CC(O)([C@H](F)CNC(=O)c1cnc(Nc2ccc3ncsc3c2)cc1NC1CCCC1F)C(F)(F)F` (stereo in doubt) [Example 342], with 3.3 nM. Take `CC(C)Nc1cc(Nc2ccc3ncsc3c2)ncc1C(=O)NC[C@@H](F)C(O)(C1CC1)C(F)(F)F` (stereo partly shown) [Example 31]: the IC50 came out at 5.2 nM. Then `N#CCNC(=O)c1cnc(Nc2ccc3ncsc3c2)cc1NC1CCCC1` [Example 153], with 6.1 nM; and `CC(C)CCNc1cc(Nc2ccc3ncsc3c2)ncc1C(=O)NC[C@@H](F)C(C)(C)O` [Example 163], with 6.9 nM; and `CC(C)Nc1cc(Nc2ccc3ncsc3c2)ncc1C(=O)N[C@H]1CCN(S(C)(=O)=O)C1` [Example 215], with 6.1 nM.

With `CC(C)(O)[C@H](F)CNC(=O)c1cnc(Nc2ccn3nccc3n2)cc1NC1CCC1` [Example 241], the IC50 came to 4.1 nM. For `CC(C)(O)[C@H](F)CNC(=O)c1cnc(Nc2ccn3nccc3n2)cc1NC1CCC(F)(F)C1` (stereo partly shown) [Example 242], the 50% inhibitory concentration (IC50) is 1.9 nM. To `CC(C)(O)[C@H](F)CNC(=O)c1cnc(Nc2ccn3nccc3n2)cc1NC1CCOCC1F` (stereo partly shown) [Example 249] belongs 2.9 nM; to `CC(C)(O)[C@H](F)CNC(=O)c1cnc(Nc2ccn3nccc3n2)cc1NC1CCC(F)(F)C1` (stereo partly shown) [Example 259], 1.8 nM. To `CC(C)(O)[C@H](F)CNC(=O)c1cnc(Nc2ccn3nccc3n2)cc1NC1CCOCC1F` (stereo partly shown) [Example 270] belongs 9.4 nM. Then `CC(C)(O)[C@H](F)CNC(=O)c1cnc(Nc2ccn3nccc3n2)cc1NC1CCOCC1F` (stereo partly shown) [Example 271], with 4.3 nM; and `Cc1cnc2ccc(Nc3cc(NC4CC4)c(C(=O)NC[C@@H](F)C(C)(C)O)cn3)nn12` [Example 276], with 7.1 nM. On to `CC(C)(O)[C@H](F)CNC(=O)c1cnc(Nc2ccc3ncsc3c2)cc1NC1CCCC1O` (stereo partly shown) [Example 335], for which the IC50 was 4.1 nM. Regarding `CC(C)Nc1cc(Nc2ncc3ncccc3n2)ncc1C(=O)NC[C@@H](F)C(C)(C)O` [Example 370], the IC50 turned out to be 4.1 nM. To `CC(C)(O)[C@H](F)CNC(=O)c1cnc(Nc2nc3ccnn3cc2F)cc1NC1CCCC1F` (stereo partly shown) [Example 463] belongs 3.1 nM; to `CC(C)(O)[C@H](F)CNC(=O)c1cnc(Nc2nc3ccnn3cc2F)cc1NC1CCCC1O` (stereo partly shown) [Example 464], 9.6 nM. Consider `CC(C)(O)[C@H](F)CNC(=O)c1cnc(Nc2nc3ccnn3cc2F)cc1N[C@H]1CCC[C@@H]1O` [Example 466], for which the IC50 worked out at 2.7 nM. To `CC(C)(O)[C@H](F)CNC(=O)c1cnc(Nc2nc3ccnn3cc2F)cc1NC1CCCC1F` (stereo partly shown) [Example 471] belongs 2.4 nM. To `CC(C)(O)[C@H](F)CNC(=O)c1cnc(Nc2nc3ccnn3cc2F)cc1NC1CCCC1F` (stereo partly shown) [Example 472] belongs 3.8 nM; to `CC(C)Nc1cc(Nc2nc3ccnn3cc2F)ncc1C(=O)NCC(F)(F)C(C)(C)O` [Example 522], 9.3 nM.
